Test results taken from patent publication US12162874B2, “Peptidomimetic-based antibody surrogate for HER2” (University of South Florida, priority 2021, dated 2024).

Test system: SKBR3 tumor xenograft
Assay: Antitumor study in SKBR3 xenograft nude mice, tumor volume
Type: in vivo, mouse
Details: after end of dosing, until day 24
Text: Male BALB/c nude mice, 4-6 weeks old, were provided by the Shanghai Bikai Experimental Animal Center, with the license number SOXK (Hu) 2008-0016, and maintained under specific-pathogen-free conditions. All animal protocols were approved by the Institutional Animal Use and Care Committee. All the experiments and animal care were approved by Shanghai Medical Experimental Animal Care Commission and in accordance with the Provision and General Recommendation of Chinese Experimental Animals Administration Legislation.

“trastuzumab: a monoclonal antibody that targets the HER2 pathway [reference compound]” was tested. Which “tumor volume after the last drug injection on day 12” value did it give?
The value was “significant reduction in tumor volume was still observed”.
